Target: T1, Full-length isoform 165 of human VEGF-A (Homo sapiens, UniProt P15692-4, strain)
T1 construct: human vascular endothelial growth factor A, 165 amino acid isoform (VEGF165); also called VEGF165
Experiment: SPR; BioRad ProteOn XPR36; HER2 or VEGF amine-coupled to a GLC chip (about 150 RU); Fab as analyte, 3-fold dilutions from 30, 60 or 120 nM; 25C; PBS, 0.05% Tween 20, 3.4 mM EDTA; 1:1 binding model, KD from koff/kon
Settings: both partners purified

Amino acid sequences for entries named in this document (tags omitted).
UniProt P15692, whole entry, looked up, stated change not applied: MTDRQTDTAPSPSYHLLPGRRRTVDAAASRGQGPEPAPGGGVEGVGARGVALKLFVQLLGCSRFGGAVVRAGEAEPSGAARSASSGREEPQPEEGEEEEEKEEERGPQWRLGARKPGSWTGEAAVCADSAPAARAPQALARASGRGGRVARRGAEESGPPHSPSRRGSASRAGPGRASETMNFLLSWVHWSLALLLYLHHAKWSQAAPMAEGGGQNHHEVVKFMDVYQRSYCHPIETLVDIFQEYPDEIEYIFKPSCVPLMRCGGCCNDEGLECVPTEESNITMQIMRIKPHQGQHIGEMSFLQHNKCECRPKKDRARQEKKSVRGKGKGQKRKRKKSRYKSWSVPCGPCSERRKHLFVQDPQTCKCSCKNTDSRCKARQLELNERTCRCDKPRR

Binder	binding result
bH1 Fab HY33W (Fab, V domains shown, as the heavy chain of m4 with the stated change; numbers count on: Bostrom et al. [8]; as the light chain of m4; source: CHO-3E7, co-transfected, His-tag purified) VH: not shown VL: DIQMTQSPSSLSASVGDRVTITCRASQDIPRSISGYVAWYQQKPGKAPKLLIYWGSYLYSGVPSRFSGSGSGTDFTLTISSLQPEDFATYYCQQHYTTPPTFGQGTKVEIK	binds
bH1 Fab HD98W (Fab, V domains shown, as the heavy chain of m4 with the stated change; numbers count on: Bostrom et al. [8]; as the light chain of m4; source: CHO-3E7, co-transfected, His-tag purified) VH: not shown VL: DIQMTQSPSSLSASVGDRVTITCRASQDIPRSISGYVAWYQQKPGKAPKLLIYWGSYLYSGVPSRFSGSGSGTDFTLTISSLQPEDFATYYCQQHYTTPPTFGQGTKVEIK	binds
bH1 Fab HG99D (Fab, V domains shown, as the heavy chain of m4 with the stated change; numbers count on: Bostrom et al. [8]; as the light chain of m4; source: CHO-3E7, co-transfected, His-tag purified) VH: not shown VL: DIQMTQSPSSLSASVGDRVTITCRASQDIPRSISGYVAWYQQKPGKAPKLLIYWGSYLYSGVPSRFSGSGSGTDFTLTISSLQPEDFATYYCQQHYTTPPTFGQGTKVEIK	binds

Now from value to binder:

binding result	Binder
binds	bH1 Fab HG99R (Fab, V domains shown, as the heavy chain of m4 with the stated change; numbers count on: Bostrom et al. [8]; as the light chain of m4; source: CHO-3E7, co-transfected, His-tag purified) VH: not shown VL: DIQMTQSPSSLSASVGDRVTITCRASQDIPRSISGYVAWYQQKPGKAPKLLIYWGSYLYSGVPSRFSGSGSGTDFTLTISSLQPEDFATYYCQQHYTTPPTFGQGTKVEIK
binds	bH1 Fab HG99M (Fab, V domains shown, as the heavy chain of m4 with the stated change; numbers count on: Bostrom et al. [8]; as the light chain of m4; source: CHO-3E7, co-transfected, His-tag purified) VH: not shown VL: DIQMTQSPSSLSASVGDRVTITCRASQDIPRSISGYVAWYQQKPGKAPKLLIYWGSYLYSGVPSRFSGSGSGTDFTLTISSLQPEDFATYYCQQHYTTPPTFGQGTKVEIK
binds	bH1 Fab HD98F (Fab, V domains shown, as the heavy chain of m4 with the stated change; numbers count on: Bostrom et al. [8]; as the light chain of m4; source: CHO-3E7, co-transfected, His-tag purified) VH: not shown VL: DIQMTQSPSSLSASVGDRVTITCRASQDIPRSISGYVAWYQQKPGKAPKLLIYWGSYLYSGVPSRFSGSGSGTDFTLTISSLQPEDFATYYCQQHYTTPPTFGQGTKVEIK
binds	bH1 Fab HD98M (Fab, V domains shown, as the heavy chain of m4 with the stated change; numbers count on: Bostrom et al. [8]; as the light chain of m4; source: CHO-3E7, co-transfected, His-tag purified) VH: not shown VL: DIQMTQSPSSLSASVGDRVTITCRASQDIPRSISGYVAWYQQKPGKAPKLLIYWGSYLYSGVPSRFSGSGSGTDFTLTISSLQPEDFATYYCQQHYTTPPTFGQGTKVEIK
